Test results reported in PMC12900513, “BICC1 interacts with PKD1 and PKD2 to drive cystogenesis in ADPKD” (eLife, 2026).

By UniProt entry, the sequences of proteins in these tests, tags left out. Residues count along the entry.
UniProt P98161, 24-4303: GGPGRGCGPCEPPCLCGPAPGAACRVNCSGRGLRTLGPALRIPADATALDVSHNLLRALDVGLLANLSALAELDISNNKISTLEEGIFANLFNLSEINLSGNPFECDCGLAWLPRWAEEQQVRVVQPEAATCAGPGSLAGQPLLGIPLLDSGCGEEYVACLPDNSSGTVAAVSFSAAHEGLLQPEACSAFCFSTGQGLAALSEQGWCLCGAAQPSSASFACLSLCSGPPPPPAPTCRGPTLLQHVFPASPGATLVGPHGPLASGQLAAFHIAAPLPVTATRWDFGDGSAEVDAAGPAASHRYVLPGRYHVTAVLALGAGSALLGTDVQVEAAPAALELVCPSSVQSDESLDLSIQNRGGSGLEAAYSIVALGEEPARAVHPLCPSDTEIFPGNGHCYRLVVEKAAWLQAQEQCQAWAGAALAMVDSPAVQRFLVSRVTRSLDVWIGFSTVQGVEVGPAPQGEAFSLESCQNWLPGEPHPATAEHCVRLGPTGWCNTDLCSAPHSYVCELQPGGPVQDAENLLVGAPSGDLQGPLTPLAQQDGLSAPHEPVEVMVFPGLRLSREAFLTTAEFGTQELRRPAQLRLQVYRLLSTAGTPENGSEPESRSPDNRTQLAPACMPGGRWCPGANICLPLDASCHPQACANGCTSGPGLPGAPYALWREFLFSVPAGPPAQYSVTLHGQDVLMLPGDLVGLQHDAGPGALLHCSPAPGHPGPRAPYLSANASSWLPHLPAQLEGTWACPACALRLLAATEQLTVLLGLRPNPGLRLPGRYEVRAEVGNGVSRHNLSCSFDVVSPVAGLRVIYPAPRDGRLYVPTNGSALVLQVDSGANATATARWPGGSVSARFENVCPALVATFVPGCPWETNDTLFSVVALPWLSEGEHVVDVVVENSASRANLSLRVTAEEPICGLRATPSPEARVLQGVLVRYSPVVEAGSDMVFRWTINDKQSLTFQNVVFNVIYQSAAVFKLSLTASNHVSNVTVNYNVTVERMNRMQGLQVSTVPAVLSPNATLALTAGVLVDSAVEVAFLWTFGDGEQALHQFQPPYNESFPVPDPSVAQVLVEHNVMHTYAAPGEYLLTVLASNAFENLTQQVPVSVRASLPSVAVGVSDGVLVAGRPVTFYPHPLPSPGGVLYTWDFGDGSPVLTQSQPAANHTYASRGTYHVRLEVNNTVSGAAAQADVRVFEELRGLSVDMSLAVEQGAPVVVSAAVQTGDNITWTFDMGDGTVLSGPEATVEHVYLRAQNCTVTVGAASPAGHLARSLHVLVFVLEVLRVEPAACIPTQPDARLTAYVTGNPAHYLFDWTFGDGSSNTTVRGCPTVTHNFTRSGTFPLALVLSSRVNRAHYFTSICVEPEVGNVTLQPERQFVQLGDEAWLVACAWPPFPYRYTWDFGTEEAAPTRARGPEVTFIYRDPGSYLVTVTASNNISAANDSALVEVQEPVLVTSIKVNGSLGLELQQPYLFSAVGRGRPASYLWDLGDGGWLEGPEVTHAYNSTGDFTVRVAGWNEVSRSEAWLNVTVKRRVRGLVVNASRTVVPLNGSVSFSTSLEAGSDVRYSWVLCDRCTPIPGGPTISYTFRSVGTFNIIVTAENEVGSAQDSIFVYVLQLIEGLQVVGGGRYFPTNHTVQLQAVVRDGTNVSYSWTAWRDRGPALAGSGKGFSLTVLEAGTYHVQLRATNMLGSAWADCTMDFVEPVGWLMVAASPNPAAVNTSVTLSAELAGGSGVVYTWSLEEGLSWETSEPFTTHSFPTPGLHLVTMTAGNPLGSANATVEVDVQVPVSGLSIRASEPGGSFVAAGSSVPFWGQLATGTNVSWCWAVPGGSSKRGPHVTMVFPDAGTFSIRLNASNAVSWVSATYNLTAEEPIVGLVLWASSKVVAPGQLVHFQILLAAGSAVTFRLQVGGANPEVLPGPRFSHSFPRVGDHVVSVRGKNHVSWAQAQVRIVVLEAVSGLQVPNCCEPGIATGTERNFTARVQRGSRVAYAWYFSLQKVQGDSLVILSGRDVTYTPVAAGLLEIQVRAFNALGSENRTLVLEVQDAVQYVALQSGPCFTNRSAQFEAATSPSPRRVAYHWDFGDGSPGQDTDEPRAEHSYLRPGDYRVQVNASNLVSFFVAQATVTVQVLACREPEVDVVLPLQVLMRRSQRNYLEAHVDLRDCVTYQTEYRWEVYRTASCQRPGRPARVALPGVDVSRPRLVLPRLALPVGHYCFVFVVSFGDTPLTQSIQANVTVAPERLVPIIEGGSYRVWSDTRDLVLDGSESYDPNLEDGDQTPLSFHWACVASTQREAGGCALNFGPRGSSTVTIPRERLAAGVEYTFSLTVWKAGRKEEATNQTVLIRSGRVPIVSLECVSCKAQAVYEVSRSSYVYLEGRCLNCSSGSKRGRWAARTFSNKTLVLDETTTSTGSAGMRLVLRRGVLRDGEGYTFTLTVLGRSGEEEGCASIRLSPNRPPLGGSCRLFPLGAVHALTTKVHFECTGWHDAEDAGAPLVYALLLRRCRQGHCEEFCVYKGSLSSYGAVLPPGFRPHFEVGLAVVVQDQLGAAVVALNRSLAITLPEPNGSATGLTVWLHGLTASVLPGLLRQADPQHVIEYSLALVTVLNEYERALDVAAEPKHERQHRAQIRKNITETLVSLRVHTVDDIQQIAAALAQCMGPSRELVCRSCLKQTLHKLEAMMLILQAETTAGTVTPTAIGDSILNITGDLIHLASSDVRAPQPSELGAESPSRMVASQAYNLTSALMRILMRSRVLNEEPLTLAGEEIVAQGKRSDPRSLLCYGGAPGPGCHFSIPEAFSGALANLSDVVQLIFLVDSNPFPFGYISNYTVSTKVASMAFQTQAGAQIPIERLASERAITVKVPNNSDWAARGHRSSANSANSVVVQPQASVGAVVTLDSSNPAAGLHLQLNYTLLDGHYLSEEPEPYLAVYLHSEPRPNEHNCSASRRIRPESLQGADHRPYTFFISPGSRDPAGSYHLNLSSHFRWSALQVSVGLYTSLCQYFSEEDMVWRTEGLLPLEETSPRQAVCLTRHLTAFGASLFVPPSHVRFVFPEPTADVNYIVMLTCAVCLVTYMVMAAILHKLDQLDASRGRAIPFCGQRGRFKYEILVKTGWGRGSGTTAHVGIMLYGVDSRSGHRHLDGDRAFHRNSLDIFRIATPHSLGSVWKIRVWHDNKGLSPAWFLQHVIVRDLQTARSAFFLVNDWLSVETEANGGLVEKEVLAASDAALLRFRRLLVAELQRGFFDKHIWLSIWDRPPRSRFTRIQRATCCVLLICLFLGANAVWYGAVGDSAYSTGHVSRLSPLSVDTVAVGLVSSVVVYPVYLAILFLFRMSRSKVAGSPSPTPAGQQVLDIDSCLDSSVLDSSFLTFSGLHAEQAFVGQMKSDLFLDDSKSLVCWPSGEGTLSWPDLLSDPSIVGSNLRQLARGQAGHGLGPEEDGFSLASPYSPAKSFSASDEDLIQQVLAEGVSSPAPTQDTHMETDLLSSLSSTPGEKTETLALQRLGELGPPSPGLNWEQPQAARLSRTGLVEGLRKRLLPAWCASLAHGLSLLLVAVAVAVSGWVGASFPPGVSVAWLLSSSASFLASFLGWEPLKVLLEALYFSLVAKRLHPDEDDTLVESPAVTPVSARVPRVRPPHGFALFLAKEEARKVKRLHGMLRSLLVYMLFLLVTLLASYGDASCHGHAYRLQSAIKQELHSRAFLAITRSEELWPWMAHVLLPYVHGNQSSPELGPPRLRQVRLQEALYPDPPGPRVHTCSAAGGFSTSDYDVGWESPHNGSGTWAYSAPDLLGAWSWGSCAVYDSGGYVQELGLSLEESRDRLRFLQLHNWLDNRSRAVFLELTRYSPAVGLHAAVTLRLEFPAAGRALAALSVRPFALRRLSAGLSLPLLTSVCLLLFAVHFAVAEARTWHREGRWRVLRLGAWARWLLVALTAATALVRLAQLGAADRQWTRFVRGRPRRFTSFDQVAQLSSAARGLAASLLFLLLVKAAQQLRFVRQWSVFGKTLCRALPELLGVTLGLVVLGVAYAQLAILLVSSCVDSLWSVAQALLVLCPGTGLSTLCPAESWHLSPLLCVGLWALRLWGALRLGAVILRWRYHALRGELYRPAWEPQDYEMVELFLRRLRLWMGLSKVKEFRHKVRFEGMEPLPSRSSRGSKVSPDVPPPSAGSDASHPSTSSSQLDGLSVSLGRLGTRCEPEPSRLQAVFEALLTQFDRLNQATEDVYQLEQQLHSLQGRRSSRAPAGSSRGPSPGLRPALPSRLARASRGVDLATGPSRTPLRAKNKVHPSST

Biological target: T1, PC1-HA (full-length HA-tagged Polycystin-1) (UniProt P98161 24-4303)
T1 construct: Polycystin-1 (PC1, PKD1), full length; plasmid previously reported (Xu et al., 2016); also called Full-length PC1; source: HEK-293, transfected, in lysate
Experiment: co-IP; myc-mBicc1 constructs co-expressed with HA-tagged PC1 or PC2 in HEK-293 cells; the HA-tagged protein as bait
Details: partners not purified

B1: myc-mBicc1-ΔKH (aa352-977) (domain or fragment, mouse, UniProt Q99MQ1 352-977, looked up)
chain: GCLPLVLMFDMKEDIEVDPQVIAQLMEQLDVFISIKPKPKQPSKSVIVKSVERNALNMYEARKCLLGLESSGVSIATSLSPASCPAGLACPSLDILASAGLGLTGLGLLGPTTLSLNTSATPNSLLNALNTSVSPLQSSSSGTPSPTLWAPPIANTASATGFSTIPHLMLPSTAQATLTNILLSGVPTYGHTAPSPPPGLTPVDVHINSMQTEGKNISASINGHVQPANMKYGPLSTSSLGEKVLSSNHGDPSMQTAGPEQASPKSNSVEGCNDAFVEVGMPRSPSHSGNAGDLKQMLGASKVSCAKRQTVELLQGTKNSHLHGTDRLLSDPELSATESPLADKKAPGSERAAERAAAAQQKSERARLASQPTYVHMQAFDYEQKKLLATKAMLKKPVVTEVRTPTNTWSGLGFSKSMPAETIKELRRANHVSYKPTMTTAYEGSSLSLSRSSSREHLASGSESDNWRDRNGIGPMGHSEFSAPIGSPKRKQNKSREHYLSSSNYMDCISSLTGSNGCNLNSCFKGSDLPELFSKLGLGKYTDVFQQQEIDLQTFLTLTDQDLKELGITTFGARRKMLLAISELSKNRRKLFEPPNASCTSFLEGGASGRLPRQYHSDIASVSGRW
notes: Bicc1, mouse, aa352-977, lacks the KH/KHL domains (aa1-351); also called myc-mBicc1-△KH; source: HEK-293, transfected, in lysate
fold change of the interaction against myc-mBicc1 or myc-mBicc1-ΔSAM: 8 fold
